In ChEMBL document CHEMBL1122674, “Aporphines. 58. N-(2-chloroethyl) [8,9-2H]norapomorphine, an irreversible ligand for dopamine receptors: synthesis and application” (J Med Chem, 1984) one finds IC50 data, which are given here for one molecule.

The chains behind the UniProt entries cited, without tags or fusion partners.
UniProt Q9GJU1, whole entry: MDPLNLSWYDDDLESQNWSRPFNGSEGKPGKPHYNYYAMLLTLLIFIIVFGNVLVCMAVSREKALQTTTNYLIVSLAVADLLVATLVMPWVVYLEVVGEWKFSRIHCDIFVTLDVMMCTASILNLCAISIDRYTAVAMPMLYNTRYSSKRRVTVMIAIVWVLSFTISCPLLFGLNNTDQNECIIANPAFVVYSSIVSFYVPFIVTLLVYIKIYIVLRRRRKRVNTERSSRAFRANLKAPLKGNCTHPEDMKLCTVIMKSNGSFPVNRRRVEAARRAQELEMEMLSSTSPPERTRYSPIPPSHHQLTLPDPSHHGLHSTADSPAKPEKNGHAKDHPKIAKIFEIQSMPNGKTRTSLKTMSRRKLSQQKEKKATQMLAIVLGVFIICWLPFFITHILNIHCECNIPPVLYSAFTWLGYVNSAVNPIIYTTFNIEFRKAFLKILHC

This experiment deals with D(2) dopamine receptor (Canis lupus familiaris, UniProt Q9GJU1). Description: The IC50 value was reported as apparent, since [3H]NCA was purported to be irreversible (dopamine receptor from Canine striatal membranes). Result indicates the mean of two separate experiments, each performed in triplicate.

On to `CCN1CCCC1CNC(=O)c1cc(S(N)(=O)=O)ccc1OC` (racemic) [SULPIRIDE], for which the concentration for half-maximal inhibition (IC50) (as a rule, the concentration needed to halve the response being measured) came to 200 nM.
